# Literature values as cited in patent publication US11260118B2, “Immunogenic peptide composition” (Cancer Research Malaysia, priority 2017, dated 2022).
# Tested on: HNSCC
# Conditions: combination of chemotherapy with cetuximab; cited from earlier work
substance,measurement,value
cetuximab,improvement of median overall survival duration versus chemotherapy only,2.6 months
